Literature values, collected in PMC12987686 (RSC pharmaceutics, 2025).

Settings: cited from earlier work

Substance: ^13N-ammonia
- first-pass extraction fraction: ~ 80%
